Assay: Solubility at 37° C. in pH buffers and bio-relevant media
[1] = pH 6.8, 50 mM phosphate buffer, cells wrap: 'No form' + 'change', 'Amorphous' + 'form'

O=C(N[C@H](CN1CCCC1)[C@H](O)c1ccc(OC2CC2)c(Cl)c1)/C(=N/O)c1ccc2cc(Cl)ccc2c1.O=C(O)C[C@H](O)C(=O)O
XRPD (24 h) of residual solids [1]: Amorphous

O=C(N[C@H](CN1CCCC1)[C@H](O)c1ccc(OC2CC2)c(Cl)c1)/C(=N/O)c1ccc2cc(Cl)ccc2c1.O=C(O)C(O)C(O)C(=O)O
XRPD (24 h) of residual solids [1]: Amorphous

O=C(N[C@H](CN1CCCC1)[C@H](O)c1ccc(OC2CC2)c(Cl)c1)/C(=N/O)c1ccc2cc(Cl)ccc2c1 [Crystalline Form A of Compound 1]
XRPD (24 h) of residual solids (FaSSIF-V1, pH 6.5, cell wraps: 'No form' + 'change'): No form
XRPD (24 h) of residual solids (Water, cell wraps: 'No form' + 'change'): No form
XRPD (24 h) of residual solids (pH 4.5, 50 mM acetate buffer, cell wraps: 'No form' + 'change'): No form
XRPD (24 h) of residual solids [1]: No form

Reference: patent US20260048036A1, “CRYSTALLINE FORMS OF A GLUCOSYLCERAMIDE SYNTHASE INHIBITOR AND USES THEREOF” (ACELINK THERAPEUTICS, INC., priority 2022, published 2026)
